System: Rats
Test: Inflammatory pain: carrageenan-induced hyperalgesia, Hargreaves test
Settings: R-MDMA 12.5 and 25 mg/kg PO

With `CN[C@H](C)Cc1ccc2c(c1)OCO2` [R-MDMA] the thermal hyperalgesia (3 hours post-carrageenan, Hargreaves test at 60 and 120 minutes post dose) was “significant decrease” and the “latency to withdraw the injured paw” value (compared to the vehicle treatment (P<0.001, P<0.01), FIG. 5) was “significantly increased”.

Source: patent US20240285576A1, “R-MDMA FOR TREATMENT OF PAIN” (Mind Medicine, Inc., priority 2023, published 2024)
